This is an account of results in patent US5462926A (Biomeasure, Inc., priority 1993, dated 1995).

Amino acid sequences for entries named in this document (tags omitted). A change or cut given only in a name is not applied to a line headed by its entry.
UniProt P52500: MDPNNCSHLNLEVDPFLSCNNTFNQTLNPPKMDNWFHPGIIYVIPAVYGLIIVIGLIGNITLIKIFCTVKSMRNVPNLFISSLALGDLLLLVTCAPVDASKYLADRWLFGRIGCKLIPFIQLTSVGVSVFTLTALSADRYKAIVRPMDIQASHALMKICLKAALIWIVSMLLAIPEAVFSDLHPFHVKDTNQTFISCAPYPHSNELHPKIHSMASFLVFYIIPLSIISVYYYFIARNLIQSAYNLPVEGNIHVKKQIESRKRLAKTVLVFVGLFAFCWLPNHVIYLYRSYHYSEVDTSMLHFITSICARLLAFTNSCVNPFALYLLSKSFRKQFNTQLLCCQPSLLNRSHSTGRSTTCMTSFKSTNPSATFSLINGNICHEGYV

Assay [1] has as its target GRP receptors on rat pancreatic acini (Rattus norvegicus, UniProt P52500). Nature of the assay: Binding of 125I-[Tyr4]bombesin to pancreatic acini. The following applies: read-out: Ki 125I-[Tyr4]Bn Binding, GRP Receptor, Rat Pancreatic Acini, Ki by Cheng method.
The target in the next assay is GRP receptor (Rattus norvegicus, UniProt P52500). Nature of the assay: Amylase release from rat pancreatic acini (alone or Bn-stimulated). The format is cell-based. Particulars: read-out: IC50 Amylase Release, GRP Receptor, Rat Pancreatic Acini.

For the compound `C[C@@H](O)[C@H](NC(=O)[C@@H]1CSSC[C@H](NC(=O)[C@H](N)Cc2ccc3ccccc3c2)C(=O)N[C@@H](Cc2ccccc2)C(=O)N[C@H](Cc2c[nH]c3ccccc23)C(=O)N[C@@H](CCCCN)C(=O)N[C@@H]([C@@H](C)O)C(=O)N1)C(N)=O` [Analog #19], the inhibition constant (Ki) in assay [1] was more than 10 µM. In addition, the IC50 on GRP receptor is more than 10 µM.
